Data on two molecules can be found in patent US4092304A, “4-Substituted enkephalin derivatives” (G. D. Searle & Co., priority 1976, dated 1978).

Molecules are shown by their SMILES.

The test relates to opiate receptor sites. Particulars: guinea pig whole brain membranes (cerebella removed), 4° C., in the absence of sodium ion.

`CCC(=O)C(CC(C)N(C)C)(c1ccccc1)c1ccccc1` (centres unmarked) [methadone]: the “ID50 concentration of the 3H-naloxone binding” value was 2.4 × 10^-8.

`CN1CC[C@]23c4c5ccc(O)c4O[C@H]2[C@@H](O)C=C[C@H]3[C@H]1C5` [morphine]: the “ID50 concentration of the 3H-naloxone binding” value is 1.2 × 10^-8.
